{
  "source": "patent US20080138437A1",
  "about": "“Antitumor Agent” (priority 2004, published 2008)",
  "test_system": "C57BL/6 male mouse",
  "details": "14 days observation; for deaths versus administered animals: one-time",
  "note": "Where two headings read alike, the source gives them in different places.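 Note: mice given a single dose and followed for 14 days, with deaths tallied, LD50 derived from the doses given and the resulting death counts.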",
  "data": [
    {"substance": "Interferon-β", "values": [
      {"measurement": "deaths versus administered animals", "setting": "600 mg/kg intravascular", "value": "0/6"},
      {"measurement": "deaths versus administered animals", "setting": "800 mg/kg intravascular", "value": "1/7"},
      {"measurement": "deaths versus administered animals", "setting": "1000 mg/kg intravascular", "value": "2/6"},
      {"measurement": "deaths versus administered animals", "setting": "1200 mg/kg intravascular", "value": "4/7"},
      {"measurement": "deaths versus administered animals", "setting": "1500 mg/kg intravascular", "value": "5/8"},
      {"measurement": "deaths versus administered animals", "setting": "1700 mg/kg intravascular", "value": "7/7"},
      {"measurement": "LD50", "setting": "intravascular, one-time administration", "value": 1222, "unit": "mg/kg"}
    ]}
  ]
}
